Assay results: patent US20050124021A1 (priority 2000, published 2005)

Protein sequences, listed by entry. Tags and fused reporters are not part of them. Lines headed by an entry give the natural chain unless they say otherwise; changes in a name come on top.
UniProt A0R2W9: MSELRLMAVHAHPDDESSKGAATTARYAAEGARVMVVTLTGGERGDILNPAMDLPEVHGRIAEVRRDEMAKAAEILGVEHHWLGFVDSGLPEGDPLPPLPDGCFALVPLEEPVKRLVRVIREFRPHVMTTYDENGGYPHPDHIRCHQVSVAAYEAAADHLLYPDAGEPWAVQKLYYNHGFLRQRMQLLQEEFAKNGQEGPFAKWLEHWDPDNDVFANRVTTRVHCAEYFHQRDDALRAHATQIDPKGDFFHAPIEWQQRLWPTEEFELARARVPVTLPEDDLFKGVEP

Legend:
M. smegmatis mutant 49 = assay: Time course of MSH and precursors in mutant 49 cultured with supplements; type: cell-based; conditions: 17 μM GlcNAc-Ins
[1] = tested on: deacetylase activity of M. smegmatis mutant 49 extract; assay: Deacetylase activity (GlcN-Ins production) in centrifuged cell extracts, mutant 49; conditions: 100 μM GlcNAc-Ins added
[2] = tested on: deacetylase activity of M. smegmatis mc^2155 extract; assay: Deacetylase activity (GlcN-Ins production) in centrifuged cell extracts, strain mc^2155; conditions: 100 μM GlcNAc-Ins added
[3] = tested on: MSH-deficient strain 49 (M. smegmatis); assay: Concentration dependence of GlcNAc-Ins uptake and use for MSH synthesis; conditions: 23 hr, 37° C.
[4] = biological target: mycothiol S-conjugate amidase (Mycolicibacterium smegmatis, UniProt A0R2W9); assay: Test of purified mycothiol S-conjugate amidase for deacetylase activity; conditions: 100 μM substrate, n=4
[5] = 4 μM GlcNAc-Ins in Middlebrook 7H9 medium
[6] = 8 μM GlcNAc-Ins in Middlebrook 7H9 medium
[7] = 21 μM GlcNAc-Ins in Middlebrook 7H9 medium

Substance: N-acetyl-1-D-myo-inosityl-2-amino-2-deoxy-α-D-glucopyranoside
- Level of GlcN-Ins in cells (M. smegmatis mutant 49; 2 hr): 0.025 μmole per gm of residual dry weight
- MSH content, fold less than the GlcNAc-Ins content (M. smegmatis mutant 49; 2 hr): about 10 fold
- Concentration of GlcNAc-Ins in cells from the supplemented medium (M. smegmatis mutant 49; 48 hours): more than 100 fold
- Level of GlcN-Ins in cells (M. smegmatis mutant 49; 48 hr): 0.1 μmole per gm of residual dry weight
- MSH level relative to that measured for the parent strain (M. smegmatis mutant 49; 48 hr): about 60%
- GlcNAc-Ins content of cells (M. smegmatis mutant 49; first measurement (2 hr)): 2.9 μmole per gm of residual dry weight
- Cysteine level of cells (M. smegmatis mutant 49; unchanged over the experiment): 0.36±0.08 μmol per gm of residual dry weight
- Rate of GlcN-Ins production [1]: 16.4±1.4 pmol min^−1 mg of protein^−1
- Net rate increase of GlcN-Ins production over background [2]: 13.6±0.5 pmol min^−1 mg of protein^−1
- GlcN-Ins content of cells [3, 5]: <0.02 μmol [g of RDW]^−1
- GlcNAc-Ins content of cells [3, 5]: 0.39 μmol [g of RDW]^−1
- MSH content of cells [3, 5]: 0.47 μmol [g of RDW]^−1
- GlcN-Ins content of cells [3, 6]: 0.026 μmol [g of RDW]^−1
- GlcNAc-Ins content of cells [3, 6]: 0.80 μmol [g of RDW]^−1
- MSH content of cells [3, 6]: 0.91 μmol [g of RDW]^−1
- GlcN-Ins content of cells [3, 7]: 0.047 μmol [g of RDW]^−1
- GlcNAc-Ins content of cells [3, 7]: 1.4 μmol [g of RDW]^−1
- MSH content of cells [3, 7]: 2.1 μmol [g of RDW]^−1
- Activity with GlcNAc-Ins as substrate [4]: < 1 nmol min^−1 mg of protein^−1
